{
  "source": "patent US12472218B2",
  "about": "“Seneca valley virus (SVV) cellular receptor targeted oncotherapy” (Memorial Sloan-Kettering Cancer Center, priority 2015, dated 2025)",
  "system": "H1618 and DMS79 cells",
  "assay": "IFN response activity assay: pre-treatment, SVV-GFP challenge, flow cytometry",
  "conditions": "25 Units/mL IFN pre-treatment 24 h, then SVV-GFP 16 h; both cell lines",
  "data": [
    {"molecule": "IFNβ: exogenous interferon beta used to activate the IFN pathways (protein, UniProt P01574 22-187, looked up) Interferon beta: MSYNLLGFLQRSSNFQCQKLLWQLNGRLEYCLKDRMNFDIPEEIKQLQQFQKEDAALTIYEMLQNIFAIFRQDSSSTGWNETIVENLLANVYHQINHLKTVLEEKLEKEDFTRGKLMSSLHLKRYYGRILHYLKAKEYSHCAWTIVRVEILRNFYFINRLTGYLRN", "values": [
      {"measurement": "SVV permissive, or GFP+ cells", "value": "decrease"}
    ]}
  ]
}
